{"source": "paper PMC6160342", "target": "biotin-labeled SUMO-fusion ST SseC-SscA (S. Typhimurium) (UniProt O84947)", "assay": "SPR"}
{"substance": "VPS35/VPS26A subcomplex (from UniProt Q96QK1 1-796; O75436 1-327)", "values": [{"measurement": "Kd", "result": 380, "unit": "nM"}]}
